Assay results: ChEMBL document CHEMBL3124844 (J Med Chem, 2014)

Organism: Rattus norvegicus
Assay: Selectivity ratio of Ki for Sprague-Dawley rat brain DAT to Ki for Sprague-Dawley rat brain SERT

Which Ratio Ki does the source give for O=C(C[S+]([O-])C(c1ccc(Br)cc1)c1ccc(Br)cc1)NCCCc1ccccc1 (stereo unspecified) here?
The Ratio Ki was 1.4.
